Source: patent US10442819B2, “Tricyclic compounds as inhibitors of mutant IDH enzymes” (Merck Sharp & Dohme Corp., priority 2014, dated 2019)

Amino acid sequences for entries named in this document (tags omitted).
UniProt O75874, whole entry R132H: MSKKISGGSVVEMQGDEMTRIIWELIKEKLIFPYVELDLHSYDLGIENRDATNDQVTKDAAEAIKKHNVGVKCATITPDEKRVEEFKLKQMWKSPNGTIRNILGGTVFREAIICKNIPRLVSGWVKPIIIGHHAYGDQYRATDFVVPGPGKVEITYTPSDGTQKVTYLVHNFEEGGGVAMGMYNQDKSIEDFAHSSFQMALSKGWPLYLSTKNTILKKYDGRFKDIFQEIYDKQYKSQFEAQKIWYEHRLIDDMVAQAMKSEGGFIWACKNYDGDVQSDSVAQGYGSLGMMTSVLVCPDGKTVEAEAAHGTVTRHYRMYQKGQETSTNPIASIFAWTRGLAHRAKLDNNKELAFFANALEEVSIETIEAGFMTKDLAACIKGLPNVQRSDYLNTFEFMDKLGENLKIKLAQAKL

Molecular target: R132H mutant IDH1 enzyme (Homo sapiens (Human), UniProt O75874, R132H)
Experiment: R132H IDH1 Enzymatic Assay
Type: biochemical
Conditions: R132H mutant IDH1 enzyme 1.5 nM final; luminescence readout; read-out: IC50

IC50 [nM]	SMILES
108	CC(C)[C@@H](N[C@H]1CC[C@H](C(=O)N2Cc3cccnc3Nc3ccc(N4CCOCC4)cc32)CC1)C(F)(F)F [Example 456, trans-N-[(1R)-2-methyl-1-(trifluoromethyl)propyl]-4-[(8-morpholin-4-yl-5,11-dihydro-6H-pyrido[2,3-b][1,5]benzodiazepin-6-yl)carbonyl]cyclohexanamine]
83	COc1cc(-c2ccc3c(c2)N(C(=O)[C@H]2CC[C@H](OC)CC2)Cc2cccnc2N3)ccn1 [Example 404, 6-[(trans-4-methoxycyclohexyl)carbonyl]-8-(2-methoxypyridin-4-yl)-6,11-dihydro-5H-pyrido[2,3-b][1,5]benzodiazepine]
164	C[C@H](N(C)[C@H]1CC[C@@H](C(=O)N2Cc3cccnc3Nc3ccc(N4CCOCC4)cc32)CC1)C(F)(F)F [Example 506, cis-N-methyl-4-[(8-morpholin-4-yl-5,11-dihydro-6H-pyrido[2,3-b][1,5]benzodiazepin-6-yl)carbonyl]-N-[(1S)-2,2,2-trifluoro-1-methylethyl]cyclohexanamine]
975	O=C(C1CCCCCC1)N1Cc2cccnc2Nc2ccccc21 [Example 71, 6-(cycloheptylcarbonyl)-6,11-dihydro-5H-pyrido[2,3-b][1,5]benzodiazepine]
594	CCS(=O)(=O)c1ccc2c(c1)N(C(=O)[C@H]1CC[C@H](OC)CC1)Cc1cccnc1N2 [Example 431, 8-(ethylsulfonyl)-6-[(trans-4-methoxycyclohexyl)carbonyl]-6,11-dihydro-5H-pyrido[2,3-b][1,5]benzodiazepine]
152	COC1CCN(c2ccc3c(c2)N(C(=O)[C@H]2CC[C@H](OC)CC2)Cc2cccnc2N3)CC1(F)F (stereo partly drawn) [Example 211, 8-(3,3-difluoro-4-methoxypiperidin-1-yl)-6-[(trans-4-methoxycyclohexyl)carbonyl]-6,11-dihydro-5H-pyrido[2,3-b][1,5]benzodiazepine]
209	CO[C@H]1CC[C@H](C(=O)N2Cc3cccnc3Nc3ccc(CNC4(C(F)(F)F)CC4)cc32)CC1 [Example 484, N-({6-[(Trans-4-methoxycyclohexyl)carbonyl]-6,11-dihydro-5H-pyrido[2,3-b][1,5]benzodiazepin-8-yl}methyl)-1-(trifluoromethyl)cyclopropanamine]
3340	C=CC(=O)N1CC2(CCN2c2ccc3c(c2)N(C(=O)C2CC(C)(C)C2)Cc2cccnc2N3)C1 [Example 496, 8-(6-Acryloyl-1,6-diazaspiro[3.3]hept-1-yl)-6-[(3,3-dimethylcyclobutyl)carbonyl]-6,11-dihydro-5H-pyrido[2,3-b][1,5]benzodiazepine]
469	CO[C@@H]1CC[C@H](C(=O)N2Cc3cccnc3Nc3ccc(N4CCOCC4)cc32)C[C@@H]1C (single isomer, unassigned) [Example 98]
519	CO[C@H]1CC[C@H](C(=O)N2Cc3cccnc3Nc3ccc(N4CCn5nc(C6CC6)nc5C4)cc32)CC1 [Example 277, 8-(2-cyclopropyl-5,6-dihydro[1,2,4]triazolo[1,5-a]pyrazin-7(8H)-yl)-6-[(trans-4-methoxycyclohexyl)carbonyl]-6,11-dihydro-5H-pyrido[2,3-b][1,5]benzodiazepine]
18	O=C([C@H]1CC[C@H](OC(F)F)CC1)N1Cc2cccnc2Nc2ccc(N3CCOCC3)cc21 [Example 547, [Trans-4-(difluoromethoxy)cyclohexyl][8-(morpholin-4-yl)-5,11-dihydro-6H-pyrido[2,3-b][1,5]benzodiazepin-6-yl]methanone]
40	O=C([C@H]1CC[C@@H](OCC(F)(F)F)CC1)N1Cc2cccnc2Nc2ccc(N3CCOCC3)cc21 [Example 133, 8-morpholin-4-yl-6-{[cis-4-(2,2,2-trifluoroethoxy)cyclohex-yl]carbonyl}-6,11-dihydro-5H-pyrido[2,3-b][1,5]benzodiazepine]
440	CO[C@@H]1CC[C@H](C(=O)N2Cc3cccnc3Nc3ccc(N4CCOCC4)cc32)[C@H](C)C1 [Example 115, 6-{[(1S,2R,4R)-4-methoxy-2-methylcyclohexyl]carbon-yl}-8-morpholin-4-yl-6,11-dihydro-5H-pyrido[2,3-b][1,5]benzodiazepine]
152	COc1cncc(-c2ccc3c(c2)N(C(=O)[C@H]2CC[C@H](OC)CC2)Cc2cccnc2N3)c1 [Example 178, 6-[(trans-4-methoxycyclohexyl)carbonyl]-8-(5-methoxypyridin-3-yl)-6,11-dihydro-5H-pyrido[2,3-b][1,5]benzodiazepine]
95	CO[C@H]1CC[C@H](C(=O)N2Cc3cccnc3Nc3ccc(-c4c(C)noc4C)cc32)CC1 [Example 354, 8-(3,5-dimethylisoxazol-4-yl)-6-[(trans-4-methoxycyclohexyl)carbonyl]-6,11-dihydro-5H-pyrido[2,3-b][1,5]benzodiazepine]
474	CO[C@H]1CC[C@H](C(=O)N2Cc3cccnc3Nc3ccc(N4C[C@H](C)OC[C@@H]4C)cc32)CC1 [Example 225, 8-[(2S,5S)-2,5-dimethylmorpholin-4-yl]-6-[(trans-4-methoxycyclohexyl)carbonyl]-6,11-dihydro-5H-pyrido[2,3-b][1,5]benzodiazepine]

IC50 [nM]	SMILES
889	CO[C@H]1CC[C@H](C(=O)N2Cc3cccnc3Nc3ccc(S(C)(=O)=O)cc32)CC1 [Example 430, (Trans-4-methoxycyclohexyl)[8-(methylsulfonyl)-5,11-dihydro-6H-pyrido[2,3-b][1,5]benzodiazepin-6-yl]methanone]
105	COc1ccc(-c2ccc3c(c2)N(C(=O)[C@H]2CC[C@H](OC)CC2)Cc2cccnc2N3)c(C)n1 [Example 181, 6-[(trans-4-methoxycyclohexyl)carbonyl]-8-(6-methoxy-2-methylpyridin-3-yl)-6,11-dihydro-5H-pyrido[2,3-b][1,5]benzodiazepine]
19	CC(C)O[C@H]1CC[C@H](C(=O)N2Cc3cccnc3Nc3ccc(C4(C#N)CC4)cc32)OC1 [Example 136, 1-(6-((2R,5S)-5-isopropoxytetrahydro-2H-pyran-2-carbonyl)-6,11-dihydro-5H-benzo[b]pyrido[2,3-e][1,4]diazepin-8-yl)cyclopropane-1-carbonitrile]
16	CC(C)O[C@H]1CC[C@H](C(=O)N2Cc3cccnc3Nc3ccc(C4(C(F)F)CCOCC4)cc32)OC1 [Example 32, (8-(4-(difluoromethyl)tetrahydro-2H-pyran-4-yl)-5,11-dihydro-6H-benzo[b]pyrido[2,3-e][1,4]diazepin-6-yl)((2R,5S)-5-isopropoxytetrahydro-2H-pyran-2-yl)methanone]
560	COC1CCC(C(=O)N2Cc3cccnc3Nc3ccc(N4CCCC(OC)C4)cc32)CC1 (stereo not shown) [Example 203, 6-[(4-methoxycyclohexyl)carbonyl]-8-(3-methoxypiperidin-1-yl)-6,11-dihydro-5H-pyrido[2,3-b][1,5]benzodiazepine]
318	CO[C@H]1CN(c2ccc3c(c2)N(C(=O)[C@H]2CC[C@H](OC)CC2)Cc2cccnc2N3)CC[C@H]1F (single isomer, unassigned) [Example 217]
890	O=C([C@H]1CC[C@@H](NCC(F)(F)F)CC1)N1Cc2cccnc2Nc2ccc(N3CCOCC3)cc21 [Example 438, cis-4-[(8-morpholin-4-yl-5,11-dihydro-6H-pyrido[2,3-b][1,5]benzodiazepin-6-yl)carbonyl]-N-(2,2,2-trifluoroethyl)cyclohexanamine]
24	O=C(C1CCN(CC(F)(F)F)CC1)N1Cc2cccnc2Nc2ccc(N3C[C@@H]4C[C@H]3CO4)cc21 [Example 306, 8-[(1S,4S)-2-oxa-5-azabicyclo[2.2.1]hept-5-yl]-6-{[1-(2,2,2-trifluoroethyl)piperidin-4-yl]carbonyl}-6,11-dihydro-5H-pyrido[2,3-b][1,5]benzodiazepine]
961	[2H]C1([2H])OC([2H])([2H])C([2H])([2H])N(c2ccc3c(c2)N(C(=O)[C@H]2CC[C@H](OC)CC2)Cc2cccnc2N3)C1([2H])[2H] [Example 235, (trans-4-methoxycyclohexyl){8-[(^2H8)morpholin-4-yl]-5,11-dihydro-6H-pyrido[2,3-b][1,5]benzodiazepin-6-yl}methanone]
31	CON=C1CCC(C(=O)N2Cc3cccnc3Nc3ccc(N4CC5CCC(C4)O5)cc32)CC1 (stereo not shown) [Example 549, [4-(Methoxyimino)cyclohexyl][8-(8-oxa-3-azabicyclo[3.2.1]oct-3-yl)-5,11-dihydro-6H-pyrido[2,3-b][1,5]benzodiazepin-6-yl]methanone]
5	CC(C)O[C@H]1CC[C@H](C(=O)N2Cc3cccnc3Nc3ccc(C4CCN(C(=O)OC(C)(C)C)C4)cc32)OC1 (stereo partly drawn) [Example 49, tert-butyl 3-(6-((2R,5S)-5-isopropoxytetrahydro-2H-pyran-2-carbonyl)-6,11-dihydro-5H-benzo[b]pyrido[2,3-e][1,4]diazepin-8-yl)pyrrolidine-1-carboxylate]
200	CC(C)O[C@H]1CC[C@H](C(=O)N2Cc3cccnc3Nc3ccc(C4CCOCC4)nc32)CC1 [Example 520, [Trans-4-(propan-2-yloxy)cyclohexyl][2-(tetrahydro-2H-pyran-4-yl)-5,10-dihydro-11H-dipyrido[2,3-b:2′,3′-e][1,4]diazepin-11-yl]methanone]
894	CO[C@H]1CC[C@H](C(=O)N2Cc3cccnc3Nc3ccc(N4CCOC(c5cccnc5)C4)cc32)CC1 (stereo partly drawn) [Example 254, 6-[(trans-4-methoxycyclohexyl)carbonyl]-8-(2-pyridin-3-ylmorpholin-4-yl)-6,11-dihydro-5H-pyrido[2,3-b][1,5]benzodiazepine]
27	O=C(C1CCN(CC(F)(F)C(F)F)CC1)N1Cc2cccnc2Nc2ccc(N3CC4CCC3CO4)cc21 (stereo not shown) [Example 341, 8-(2-oxa-5-azabicyclo[2.2.2]oct-5-yl)-6-{[1-(2,2,3,3-tetrafluoropropyl)piperidin-4-yl]carbonyl}-6,11-dihydro-5H-pyrido[2,3-b][1,5]benzodiazepine]
68	CC(C)O[C@H]1CC[C@H](C(=O)N2Cc3cccnc3Nc3ccc(C4(O)CCOCC4)cc32)CC1 [Example 523, [8-(4-Hydroxytetrahydro-2H-pyran-4-yl)-5,11-dihydro-6H-pyrido[2,3-b][1,5]benzodiazepin-6-yl][trans-4-(propan-2-yloxy)cyclohexyl]methanone]
